Measurements: paper PMC5688156, “The natural product carolacton inhibits folate-dependent C1 metabolism by targeting FolD/MTHFD” (Nature Communications, 2017)

Target: E. coli ΔtolC FolD, reductively lysine-methylated (ecFolD^Meth) (E. coli) (UniProt P24186)
Experiment: crystal structure; apo ecFolD^Meth crystals, sitting drop vapour diffusion at 18 °C, space group P2_(1), 1.9 Å; four monomers in the asymmetric unit

## E. coli ΔtolC FolD, reductively lysine-methylated (ecFolD^Meth) (from UniProt P24186 1-288) (enzyme)
  stoichiometry N: 2
